Measured values reported in US9498495B2, “Methods for in vitro differentiation of TH-17+ cells” (New York University, priority 2008, dated 2016).

Assays:
[1] = system: Naive cord blood CD4+ T cells; test: Th17 cell polarization of naive cord blood CD4+ T cells in serum-free media (intracellular and surface staining: IL-17, IL-22, FOXP3, CCR6); type: cell-based, human
Method: Blood samples were obtained from the New York Blood Center. Mononuclear cells were prepared from buffy coats of healthy adult donors or from cord blood on FicollPAQUE gradients. CD4^+ T cells were isolated on an autoMACS Pro using Miltenyi bead depletion of CD14^+ and CD25^+ cells followed by positive selection of CD4^+ cells. Cord blood CD4^+ T cells were >97% pure and 100% CD45RA^+ and were used as such for initial transduction experiments. Adult CD4^+ T cell subsets and naive cord blood CD4^+ T cells were further purified respectively as CD3^+CD4^+CD25^−CD45RO^−/+ and CD3^+CD4^+CD25^−HLA-DR^−CD45RA^+ by cell sorting on a FACSAria.
Cells were cultivated in either RPMI1640 (Invitrogen) supplemented with 10% fetal bovine serum (Hyclone), penicillin-streptomycin, 2 mM glutamine, 10 mM HEPES, 1 mM pyruvate and 0.1 mM non-essential amino acids or serum-free XVIVO-20 (Lonza) supplemented with penicillin-streptomycin in a 37° C. 5% CO2 incubator. CD4^+ T cells were stimulated by addition of anti-mouse IgG magnetic beads (Pierce) previously coated with purified anti-CD3 and anti-CD28 at final concentrations of 1 bead/cell and 1 μg/ml of each antibody. For transduction experiments, cells were seeded at a concentration of 10^6 cells/ml in 24 well plates with anti-CD3/CD28 coated beads, 10 μg/ml polybrene and 10 U/ml IL-2 at day 0. Lentiviral supernatants were added at an MOI ranging from 1 to 10. Cells were washed at day 1 and split as needed in the presence of IL-2. For the shRNA experiment, puromycin was added at day 2 at 2 μg/ml. For polarization experiments, cells were seeded at a concentration of 5×10^5 to 10^6 cells/ml in U-bottom 96 well plates with anti-CD3/CD28 coated beads. IL-2 at 10 U/ml was either added at day 0 or day 3. Media was replaced at day 3 and cells were split in the presence of IL-2. For long-term experiments, cells were split as needed. In some cases, 10 ng/ml IL-1β (eBioscience), 10 ng/ml IL-6 (eBioscience), 10 ng/ml IL-21 (Cell Sciences), 10 ng/ml IL-23 (eBioscience), various concentrations of TGF-β1 (PeproTech), neutralizing soluble IL-21R (R&D) and neutralizing antibodies against IL-2, IL-4, IL-6, IFNγ or TGF-β (1 μg/ml except noted otherwise; see Table 1 for details) were added at day 0 and maintained throughout the experiment. Cells were harvested at day 6 for intracellular staining and real-time PCR analysis except where specified otherwise.
For intracellular cytokine staining, cells were incubated for 5 hours with 50 ng/ml PMA (Sigma), 500 ng/ml Ionomycin (Sigma), and GolgiStop (BD). Surface staining was performed by incubation with the corresponding fluorescently labeled antibodies for 15 min on ice. […] Flow cytometric measures were performed on a LSR II (BD Biosciences) instrument and analyzed using FlowJo software (Tree Star Inc.). […]

[2] = system: Cord blood CD4+ T cells transduced with RORγT; test: IL-17 and FOXP3 expression following RORγT transduction of cord blood CD4+ T cells (intracellular staining); type: cell-based, human

Substance | IL-17 expression ([1]; in the presence of TGF-β, IL-1β and IL-23, day 6) | effect on the suppression of IL-17 production induced by TGF-β ([2]; RORγT-transduced cells, with TGF-β) | increase of the proportion of IL-17-producing cells after forced expression of RORγT ([2]; cytokine 10 ng/ml, day 6) | suppression of TGF-β-induced FOXP3 expression ([1]; added to TGF-β, day 6) | induction of IL-17 ([1]; both IL-1β and TGF-β included, day 6) | induction of IL-17 ([1]; combined with TGF-β alone)
IL-2: cytokine, IL-2 at 10 U/ml | increased | – | – | – | – | –
IL-21: cytokine, 10 ng/ml IL-21 (Cell Sciences) | – | partially relieved | about two-fold | able to inhibit | active, albeit not as strongly as IL-23 | failed to induce
